Key:
PLA2 [1] = experiment: DBPC-based PLA2 activity assay in human EOC ascites; type: biochemical
SKOV3 cells [2] = experiment: Migration of SKOV3 cells to RAW 264.7 macrophage CM; type: cell-based, human; details: MAFP 20 μM added to CM
SKOV3-Luc cells = experiment: Mouse xenograft model of EOC, MAFP treatment
PLA2 [3] = experiment: PLA2 activity in frozen tissue sections (DBPC, in situ); type: biochemical, human; details: MAFP 40 μM, TAPC 250 μM, FIG. 7B
SKOV3 cells [4] = experiment: MTT proliferation assay, ascites-stimulated SKOV3 cells; type: cell-based, human; details: S1-stimulated; 100 μM MAFP
SKOV3 cells [5] = experiment: Cell migration assay, SKOV3 cells; type: cell-based, human; details: inhibitor in lower chamber; two different S1 fractions; FIG. 10A
EOC ascites = experiment: Ex vivo lipid generation in S1 and S4 ascites fractions (LC-MS); type: biochemical, human; details: for 16-0 LPC / 16:0 LPA / 18:0 LPA / 18:0 LPC / 18:1 LPA / 18:1 LPC / 18:2 LPA / 18:2 LPC / 20:4 LPA / 20:4 LPC / 22:6 LPA / 22:6 LPC: 48 hr + inhibitor 100 μM; for AA / total LPA / total LPC: 48 hrs
[6] = A5 S1, 37° C., inhibitor 100 μM
[7] = A5 S4, 37° C., inhibitor 100 μM
[8] = A6 S1, 37° C., inhibitor 100 μM
[9] = A6 S4, 37° C., inhibitor 100 μM
[10] = A7 S1, 37° C., inhibitor 100 μM
[11] = A7 S4, 37° C., inhibitor 100 μM

CCCCC/C=C\C/C=C\C/C=C\C/C=C\CCCCOP(=O)(F)OC (centres unmarked)
blocking PLA2 activity and migration/invasion-inducing activity of ascites S1 and S3 fractions, comparison (PLA2 [1]; MAFP compared with BEL): more effective than BEL
MAFP-sensitive (cPLA2- and iPLA2-like) share of natural PLA2 activity (PLA2 [1]; cell-free human EOC ascites, 10 specimens, MAFP 10 μM): > 98%
sensitivity of exosome-associated PLA2 activity to inhibitor (PLA2 [1]; exosomes isolated from human ascites (ExoQuick)): proved sensitive
migration of SKOV3 cells to CM with inhibitor added (SKOV3 cells [2]): abrogated migration
tumor numbers and sizes (SKOV3-Luc cells; MAFP-treated versus vehicle-treated group, FIG. 11A): significantly reduced
tumor formation (SKOV3-Luc cells; NOD/SCID mice, SKOV3 i.p., MAFP i.p. from day 10, sacrifice 38-40 days): decreased tumor formation
inhibition of EOC metastasis (SKOV3-Luc cells; mouse xenograft models): highly effective
sensitivity of tumor PLA2 activity to inhibitor (PLA2 [3]): sensitive
proliferation of SKOV3 cells reduced by (SKOV3 cells [4]): 28.8±9.98%
effect on migration of SKOV3 cells induced by S1 fractions (SKOV3 cells [5]): dose-dependently reduced
16-0 LPC (EOC ascites; A5 S1, 37° C.): 39.3 µM
16:0 LPA (EOC ascites; A5 S1, 37° C.): 3.88 µM
18:0 LPA (EOC ascites; A5 S1, 37° C.): 0.61 µM
18:0 LPC (EOC ascites; A5 S1, 37° C.): 9.13 µM
18:1 LPA (EOC ascites; A5 S1, 37° C.): 1.72 µM
18:1 LPC (EOC ascites; A5 S1, 37° C.): 7.90 µM
18:2 LPA (EOC ascites; A5 S1, 37° C.): 3.46 µM
18:2 LPC (EOC ascites; A5 S1, 37° C.): 5.82 µM
20:4 LPA (EOC ascites; A5 S1, 37° C.): 3.83 µM
20:4 LPC (EOC ascites; A5 S1, 37° C.): 2.13 µM
22:6 LPA (EOC ascites; A5 S1, 37° C.): 0.63 µM
22:6 LPC (EOC ascites; A5 S1, 37° C.): 0.89 µM
AA (EOC ascites; [6]): 3.1 µM
total LPA (EOC ascites; [6]): 14.2 µM
total LPC (EOC ascites; [6]): 65.8 µM
16-0 LPC (EOC ascites; A5 S4, 37° C.): 38.2 µM
16:0 LPA (EOC ascites; A5 S4, 37° C.): 3.95 µM
18:0 LPA (EOC ascites; A5 S4, 37° C.): 0.61 µM
18:0 LPC (EOC ascites; A5 S4, 37° C.): 8.85 µM
18:1 LPA (EOC ascites; A5 S4, 37° C.): 1.79 µM
18:1 LPC (EOC ascites; A5 S4, 37° C.): 7.91 µM
18:2 LPA (EOC ascites; A5 S4, 37° C.): 3.49 µM
18:2 LPC (EOC ascites; A5 S4, 37° C.): 5.96 µM
20:4 LPA (EOC ascites; A5 S4, 37° C.): 3.57 µM
20:4 LPC (EOC ascites; A5 S4, 37° C.): 2.28 µM
22:6 LPA (EOC ascites; A5 S4, 37° C.): 0.61 µM
22:6 LPC (EOC ascites; A5 S4, 37° C.): 0.90 µM
total LPA (EOC ascites; [7]): 14.2 µM
total LPC (EOC ascites; [7]): 64.6 µM
16-0 LPC (EOC ascites; A6 S1, 37° C.): 33.7 µM
16:0 LPA (EOC ascites; A6 S1, 37° C.): 1.70 µM
18:0 LPA (EOC ascites; A6 S1, 37° C.): 0.31 µM
18:0 LPC (EOC ascites; A6 S1, 37° C.): 7.69 µM
18:1 LPA (EOC ascites; A6 S1, 37° C.): 0.66 µM
18:1 LPC (EOC ascites; A6 S1, 37° C.): 6.15 µM
18:2 LPA (EOC ascites; A6 S1, 37° C.): 0.83 µM
18:2 LPC (EOC ascites; A6 S1, 37° C.): 3.17 µM
20:4 LPA (EOC ascites; A6 S1, 37° C.): 2.94 µM
20:4 LPC (EOC ascites; A6 S1, 37° C.): 3.27 µM
22:6 LPA (EOC ascites; A6 S1, 37° C.): 0.34 µM
22:6 LPC (EOC ascites; A6 S1, 37° C.): 0.84 µM
AA (EOC ascites; [8]): 5.4 µM
total LPA (EOC ascites; [8]): 6.9 µM
total LPC (EOC ascites; [8]): 55.3 µM
16-0 LPC (EOC ascites; A6 S4, 37° C.): 33.7 µM
18:0 LPC (EOC ascites; A6 S4, 37° C.): 7.52 µM
18:1 LPC (EOC ascites; A6 S4, 37° C.): 6.12 µM
18:2 LPC (EOC ascites; A6 S4, 37° C.): 3.23 µM
20:4 LPC (EOC ascites; A6 S4, 37° C.): 3.18 µM
22:6 LPC (EOC ascites; A6 S4, 37° C.): 0.73 µM
total LPA (EOC ascites; [9]): 12.3 µM
total LPC (EOC ascites; [9]): 54.8 µM
16-0 LPC (EOC ascites; A7 S1, 37° C.): 26.1 µM
16:0 LPA (EOC ascites; A7 S1, 37° C.): 2.00 µM
18:0 LPA (EOC ascites; A7 S1, 37° C.): 0.48 µM
18:0 LPC (EOC ascites; A7 S1, 37° C.): 6.52 µM
18:1 LPA (EOC ascites; A7 S1, 37° C.): 1.31 µM
18:1 LPC (EOC ascites; A7 S1, 37° C.): 5.89 µM
18:2 LPA (EOC ascites; A7 S1, 37° C.): 2.40 µM
18:2 LPC (EOC ascites; A7 S1, 37° C.): 4.19 µM
20:4 LPA (EOC ascites; A7 S1, 37° C.): 5.06 µM
20:4 LPC (EOC ascites; A7 S1, 37° C.): 2.60 µM
22:6 LPA (EOC ascites; A7 S1, 37° C.): 0.61 µM
22:6 LPC (EOC ascites; A7 S1, 37° C.): 0.57 µM
AA (EOC ascites; [10]): 4.3 µM
total LPA (EOC ascites; [10]): 12.0 µM
total LPC (EOC ascites; [10]): 46.2 µM
16-0 LPC (EOC ascites; A7 S4, 37° C.): 27.8 µM
16:0 LPA (EOC ascites; A7 S4, 37° C.): 2.95 µM
18:0 LPA (EOC ascites; A7 S4, 37° C.): 0.66 µM
18:0 LPC (EOC ascites; A7 S4, 37° C.): 6.98 µM
18:1 LPA (EOC ascites; A7 S4, 37° C.): 1.83 µM
18:1 LPC (EOC ascites; A7 S4, 37° C.): 6.30 µM
18:2 LPA (EOC ascites; A7 S4, 37° C.): 3.24 µM
18:2 LPC (EOC ascites; A7 S4, 37° C.): 4.62 µM
20:4 LPA (EOC ascites; A7 S4, 37° C.): 6.57 µM
20:4 LPC (EOC ascites; A7 S4, 37° C.): 2.78 µM
22:6 LPA (EOC ascites; A7 S4, 37° C.): 0.72 µM
22:6 LPC (EOC ascites; A7 S4, 37° C.): 0.60 µM
total LPA (EOC ascites; [11]): 16.1 µM
total LPC (EOC ascites; [11]): 49.4 µM
inhibition of lipid generation (EOC ascites; S1 ascites fractions, 37° C., 48 hr, inhibitor 100 μM): 74-80%
block of the decrease in LPC (EOC ascites; ascites incubated ex vivo): effectively block
block of the increase in LPA (EOC ascites; ascites incubated ex vivo): effectively block
block of the increase in arachidonic acid (EOC ascites; ascites incubated ex vivo): but not
